Values of other authors as cited in patent US11407812B2, “Targeted expression of chloride channels and methods of use thereof” (GOLEINI INC., priority 2015, dated 2022).

Biological target: GlyR (UniProt P07727)
Settings: read-out: EC50 reported by Sontheimer H. et al. (1989); similar assay, α-subunit only; cited from earlier work

## NCC(=O)O [Glycine]
  EC50: 100 µM
